The values below come from patent publication EP4821917A1, “PROLIFERATING CELL NUCLEAR ANTIGEN INHIBITOR, AND PREPARATION METHOD THEREFOR, INTERMEDIATE THEREOF, PHARMACEUTICAL COMPOSITION THEREOF AND USE THEREOF” (dated 2026).

The structures appear in SMILES notation. Some results are limits rather than exact numbers.

The first data set concerns HL-60. Nature of the data set: Antitumor activity assay (CellTiter-Glo), HL-60. Particulars: Table 3; HL-60; Max. Concentration 10 µM; 48 h; CTG. As for the experimental part: (§1) Table 2 Cell Culture Conditions
(§2) • a) The cell cryopreservation tube was taken out from liquid nitrogen and placed in a water bath at 37°C for rapid thawing. After the surface of the cryopreservation tube was wiped with 75% ethanol, the cryopreservation tube was transferred into a biosafety cabinet. • b) The cryopreserved cells were transferred into a 15-mL sterile centrifuge tube. Culture medium in a volume 10 times that of the cryopreservation solution was added, and centrifuged at 1,200 rpm for 5 min. • c) The culture medium in the centrifuge tube was discarded. An appropriate volume of fresh culture medium (Table 2) was added. The cells were re-suspended, transferred into a culture flask and cultured in a cell culture incubator at 37°C. The culture medium was replaced the next day.
(§3) • a) For adherent cells at the logarithmic growth phase, the culture medium was discarded. The cells were washed with 8 mL of PBS two times, and the PBS was discarded. • b) 5 mL of a dissociation solution containing 0.25% trypsin was added, and the cells were incubated at 37°C for 3 to 5 min. […] The cells were gently pipetted to detach them from the culture surface, thereby obtaining a cell suspension for subsequent passaging and experimentation.
(§4) • a) The cells were harvested directly and collected by centrifugation.
(§5) • a) Preparation of cell suspension • i. the culture medium was removed from the culture flask; • ii. the cells were rinsed with PBS two times; • iii. trypsin was added to dissociate the cells, and after the dissociation was terminated by adding culture medium, the cells were collected by centrifugation; the suspension cells were collected directly; • iv. the cells were re-suspended in culture medium, counted and adjusted to an appropriate concentration. • b) The cell suspension was added to a 384-well plate at a volume of 40 µL per well. The number of cells per well was shown in Table 2. • c) The cells were incubated at 37°C in a 5% CO2 incubator for 48 h.
(§6) • a) Preparation of gradient dilution solutions of positive compounds and test compounds: A 10 mM stock solution of each compound was prepared using DMSO. Subsequently, a 3-fold serial gradient dilution was carried out with DMSO to generate a total of 10 concentration points for each compound.
(§7) • a) 40 nL of compound was transferred using an Echo550 system. The cell suspension was added to the cell culture plate at a volume of 40 µL per well. • b) The cells were transferred to an incubator and incubated for 48 h.
(§8) • a) The cell culture plate was removed and allowed to equilibrate at room temperature for 30 min. • b) The working solution for the CTG assay was prepared according to the instructions of the Promega kit and equilibrated to 25°C in an incubator. • c) 30 µL of CellTiter-Glo was transferred to each well of the cell culture plate. After incubation at room temperature for 15 min, the chemiluminescence was read using Ensight.
(§9) The inhibition ratio (% inhibition) was calculated using the following formula: %Inhibition = 100%−100% × (LumSample −LumLC)/(LumHC −LumLC) [formula] • LumHC: reading of cells in the control group treated with 1‰ DMSO • LumSample: reading of cells treated with compound • LumLC: reading of cells in blank culture medium
(§10) The IC50 was calculated using XLfit (5.3.1.3) by fitting the data to formula 201: y = (A+((B-A)/(1+((x/C)^D)))) • A: Bottom • B: Top • C: IC50 (Rel IC50) • D: Hill Slope Table 3 Inhibitory Activity of Compounds Against HL-60
A general note: Cellular ATP, detected with luciferase, serves as a proxy for viable cell number.
For `Cc1cc2c(cc1Sc1ccccc1NC(=O)CNC(=O)c1cccc3ccccc13)CCO2`, the IC50 – broadly, the midpoint of a concentration-inhibition curve – came out at 68 nM.

Molecule `Cn1ccc2cc(Oc3ccccc3NC(=O)CNC(=O)c3cccc4ccccc34)ccc21` came in with an IC50 of 593 nM.

On to `COc1cccc(Oc2ccccc2NC(=O)CNC(=O)c2cccc3ccccc23)c1`, for which the IC50 is 632 nM.

Staying with this data set, now noted: Table 5 (broad-spectrum assay); HL-60.
Regarding `COc1cccc(Oc2ccccc2NC(=O)CNC(=O)c2cccc3ccccc23)c1`, the IC50 came to 385 nM.

Staying with this data set, now noted: fold relative to AOH-1996.
With `Cc1cc2c(cc1Sc1ccccc1NC(=O)CNC(=O)c1cccc3ccccc13)CCO2`, the “higher inhibitory activity against HL-60 as compared to Comparative Compound 2 (AOH-1996)” value is listed as “approximately nine times higher”.

The subject of another data set is Human ovarian cancer (OVCAR-3). Nature of the data set: Broad-spectrum antitumor activity assay, OVCAR-3. Particulars: Table 5. As for the experimental part:
as §2, §3, §4, §5, §6, §7, §8, §9
(§11) The IC50 was calculated using XLfit (5.3.1.3) by fitting the data to formula 201: y = (A+((B-A)/(1+((x/C)^D)))) • A: Bottom • B: Top • C: IC50 (Rel IC50) • D: Hill Slope Table 3 Inhibitory Activity of Compounds Against HL-60 […]
`COc1cccc(Oc2ccccc2NC(=O)CNC(=O)c2cccc3ccccc23)c1` came in with an IC50 of 536 nM.

The next data set relates to Non-small cell lung cancer (A-549). In words: Broad-spectrum antitumor activity assay, A-549. As to conditions: Table 5. As for the experimental part:
as §2
(§12) • a) For adherent cells at the logarithmic growth phase, the culture medium was discarded. The cells were washed with 8 mL of PBS two times, and the PBS was discarded. • b) 5 mL of a dissociation solution containing 0.25% trypsin was added, and the cells were incubated at 37°C for 3 to 5 min. […]
(§13) • a) Preparation of cell suspension • i. the culture medium was removed from the culture flask; • ii. the cells were rinsed with PBS two times; • iii. trypsin was added to dissociate the cells, and after the dissociation was terminated by adding culture medium, the cells were collected by centrifugation; the suspension cells were collected directly; • iv. the cells were re-suspended in culture medium, counted and adjusted to an appropriate concentration. • b) The cell suspension was added to a 384-well plate at a volume of 40 µL per well. […]
(§14) • a) The cell culture plate was removed and allowed to equilibrate at room temperature for 30 min. • b) The working solution for the CTG assay was prepared according to the instructions of the Promega kit and equilibrated to 25°C in an incubator. • c) 30 µL of CellTiter-Glo was transferred to each well of the cell culture plate. After incubation at room temperature for 15 min, the chemiluminescence was read using Ensight. […]
Take `COc1cccc(Oc2ccccc2NC(=O)CNC(=O)c2cccc3ccccc23)c1`: the IC50 amounted to 730 nM.

Test system in a further data set: not listed separately
In words: Pharmacokinetic study, single gavage to mice. As to conditions: single gavage, CB-17 SCID (B-Ces1c KO) mice, plasma; dose not given. As for the experimental part:
Pharmacokinetic studies on administration of comparative compound 2 (AOH-1996), compound 100 (MTB-2006) and compound 99 via single gavage to female CB-17 SCID (B-Ces1c KO) mice
Prior to the first administration, animals were grouped based on body weight. The animals were weighed before administration, and the dosing volume was calculated based on the body weight.
After each formulation was prepared, two aliquots of the clear dosing solution (top and bottom layers) or three aliquots of the suspension (top, middle, and bottom layers) were collected. The formulation was analyzed by HPLC-UV to evaluate the accuracy of the formulation concentration.
Plasma samples were collected at 0.167, 0.333, 0.5, 1, 2, 4, 6, and 12 h after administration.
Whole blood collection and preparation of plasma samples: Whole blood was collected from the saphenous vein of each animal (approximately 0.02 mL per time point) into pre-cooled commercial blood collection tubes (containing EDTA-K2 as an anticoagulant) at each time point. Within 10 seconds after collection of the whole blood, a stabilizer was added at a ratio of whole blood to 400 mM DDV (19:1, v:v). The samples were placed on wet ice till centrifugation. Blood samples collected at each time were kept on wet ice prior to centrifugation, and centrifuged at approximately 4°C and 3,200 g for 10 min to prepare plasma samples. Subsequently, the plasma samples were transferred to low-adsorption tubes, flash-frozen on dry ice, and stored at a temperature of -60°C or lower till LC-MS/MS. The sample processing was carried out under wet ice conditions.
The concentration of the formulation for administration was determined by the HPLC-UV method. The calibration curve consisted of at least six concentration levels. Each sample was analyzed in duplicate. The measured concentration should fall within 80% to 120% of the theoretical formulation concentration; otherwise, the pharmacokinetic parameters should be calculated based on the actual dose.
Under non-GLP conditions, an LC-MS/MS method for the quantitative determination of the test compounds in biological matrices was established. Table 6. Pharmacokinetic Data of AOH-1996, Compound 99, and MTB-2006
As for `COc1cccc(Oc2ccccc2NC(=O)CNC(=O)c2cccc3ccccc23)c1`, the “AUC 0-last” value came to 162 ng·h/mL; the Cmax (in general, the maximum level reached in the sampled fluid or tissue) is 54.3 ng/mL; the T1/2 was found to be 2.99 h.

Another data set relates to Human breast cancer (MCF7). In words: Broad-spectrum antitumor activity assay, MCF7. Particulars: Table 5. As for the experimental part:
as §2, §3, §4, §5, §6, §7, §8, §9, §11
As for `COc1cccc(Oc2ccccc2NC(=O)CNC(=O)c2cccc3ccccc23)c1`, the IC50 came out at 469 nM.

In another data set the test system is Human prostate cancer (PC-3). Nature of the data set: Broad-spectrum antitumor activity assay, PC-3. Particulars: Table 5. As for the experimental part:
as §2, §12, §13, §14
The molecule `COc1cccc(Oc2ccccc2NC(=O)CNC(=O)c2cccc3ccccc23)c1` came in with an IC50 of 351 nM.

For a further data set, the system named is Human peripheral blood mononuclear cell (Human PBMC). Nature of the data set: Cytotoxicity toward normal cells, Human PBMC. As to conditions: Table 5; normal Human PBMC; highest test concentration 10 µM. As for the experimental part: as §2, §3, §4, §5, §6, §7, §8, §9, §10
According to the test methods described above, the antitumor activities of the test compounds and AOH-1996 in various tumor cell lines were tested (Table 5).
`COc1cccc(Oc2ccccc2NC(=O)CNC(=O)c2cccc3ccccc23)c1` yielded an IC50 of more than 10000 nM.

The test system of the next data set is NCI-H522. In words: Antitumor activity assay (CellTiter-Glo), NCI-H522. As to conditions: Table 4; NCI-H522; Max. Concentration 10 µM; 48 h; CTG. As for the experimental part:
as §1, §2, §3, §4, §5, §6, §7, §8, §9, §10
In turn, `COc1cccc(Oc2ccccc2NC(=O)CNC(=O)c2cccc3ccccc23)c1` came in with an IC50 of 234 nM.
